Ki data for 61 compounds are collected here from ChEMBL document CHEMBL5727992, “3-((hetero-)aryl)-8-amino-2-oxo-1,3-diaza-spiro-[4.5]-decane derivatives” (2020).

Protein sequences, listed by entry. Tags and fused reporters are not part of them.
UniProt P35372, whole entry, looked up: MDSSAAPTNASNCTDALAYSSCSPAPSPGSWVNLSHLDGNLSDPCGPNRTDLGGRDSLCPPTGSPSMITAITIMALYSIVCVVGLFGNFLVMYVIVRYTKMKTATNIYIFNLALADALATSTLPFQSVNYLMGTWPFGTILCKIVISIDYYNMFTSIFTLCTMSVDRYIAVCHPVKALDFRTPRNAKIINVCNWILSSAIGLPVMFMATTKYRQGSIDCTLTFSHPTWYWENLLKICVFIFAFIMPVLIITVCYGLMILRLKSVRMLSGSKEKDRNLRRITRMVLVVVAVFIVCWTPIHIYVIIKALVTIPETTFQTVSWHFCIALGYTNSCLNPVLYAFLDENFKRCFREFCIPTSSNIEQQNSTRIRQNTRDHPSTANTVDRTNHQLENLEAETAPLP

One experiment deals with Mu-type opioid receptor (Homo sapiens, UniProt P35372). Kind of experiment: Receptor Binding Assay: MOP: The hMOP receptor binding assay was performed as homogeneous SPA-assay (scintillation proximity assay) using the assay buffer 50 mM TRIS-HCl (pH 7.4) supplemented with 0.052 mg/ml bovine serum albumin (Sigma-Aldrich Co. St. Louis. Mo.). The final assay volume (250 μl/well) included 1 nM of [N-allyl-2.3-3H]naloxone as ligand (PerkinElmer Life Sciences. Inc. Boston. Mass. Background: In a scintillation proximity assay essentially only radioactivity close to the scintillant gives light.

Experiment [1] is described as follows: Receptor Binding Assay: NOP:The hNOP receptor binding assay was performed as homogeneous SPA-assay (scintillation proximity assay) using the assay buffer 50 mM TRIS-HCl. 10 mM MgCl2. 1 mM EDTA (pH 7.4). The final assay volume (250 μl/well) included 0.5 nM of [leucyl-3H]nociceptin as ligand (PerkinElmer Life Sciences. Inc. Boston. Mass. USA). and either test compound in dilution series or 1 μM unla.

`CN(C)[C@]1(c2ccccc2)CC[C@]2(CC1)CN(CCC(=O)Nc1ccc(S(C)(=O)=O)nc1)C(=O)N2CC1CCC1` had a Ki on Mu-type opioid receptor of 43.5 nM.
The same measure, in the same setting: for `CN(C)[C@]1(c2ccccc2)CC[C@]2(CC1)CN(CCC(=O)Nc1cccnn1)C(=O)N2CC1(O)CCC1` the value was 410 nM.
For `COCCN1C(=O)N(CCC(=O)NCCO)C[C@]12CC[C@](c1ccccc1)(N(C)C)CC2`, the Ki in experiment [1] was 195 nM; on Mu-type opioid receptor it was 510 nM.
For `CN(C)[C@]1(c2ccccc2)CC[C@@]2(CC1)CN(CC(C)(C)C(N)=O)C(=O)N2`, in that order: 340 nM and 790 nM.
`CN(C)[C@]1(c2ccccc2)CC[C@]2(CC1)CN(CCC(=O)Nc1cccnc1)C(=O)N2CC1(O)CCC1`: the affinity at Mu-type opioid receptor, expressed as Ki, was 140 nM.
In experiment [1], `CN(C)[C@]1(c2ccccc2)CC[C@]2(CC1)CN(CCC(=O)NCc1cnco1)C(=O)N2CC1CCC1` yielded a Ki of 5.8 nM.
In the case of `CN(C)[C@]1(c2ccccc2)CC[C@]2(CC1)CN(CCC(=O)NCCO)C(=O)N2CC1(O)CCC1`, the Ki in experiment [1] stood at 18.5 nM; at Mu-type opioid receptor it was 160 nM.
The corresponding values for `CN(C)[C@]1(c2ccccc2)CC[C@]2(CC1)CN(CCC(=O)Nc1ccccn1)C(=O)N2CC1(O)CCC1` are 5.6 nM and 160 nM.
As to `CN[C@]1(c2ccccc2)CC[C@]2(CC1)CN(CC(C)(C)C(=O)NCC(N)=O)C(=O)N2CC1CCC1`, the affinity on Mu-type opioid receptor, expressed as Ki, was 124 nM.
Regarding `CN[C@]1(c2ccccc2)CC[C@]2(CC1)CN(CCC(N)=O)C(=O)N2CC1(O)CCC1`, the values for the Ki (in experiment [1]; at Mu-type opioid receptor) were 140 nM and 895 nM, respectively.
The corresponding values for `CN(C)[C@]1(c2ccccc2)CC[C@]2(CC1)CN(CCC(N)=O)C(=O)N2CC1CCC1` are 5.8 nM and 69 nM.
In the case of `CN[C@]1(c2ccccc2)CC[C@]2(CC1)CN(CCC(=O)Nc1cccnn1)C(=O)N2CC1(O)CCC1`, the figures for the Ki (in experiment [1]; at Mu-type opioid receptor) were 20 nM and 810 nM, respectively.
For `CNC(=O)CCN1C[C@]2(CC[C@](c3ccccc3)(N(C)C)CC2)N(CCOC)C1=O`, in that order: 220 nM and 1130 nM.
`CN(C)[C@]1(c2ccccc2)CC[C@]2(CC1)CN(CC(C)(C)C(N)=O)C(=O)N2CC1(C#N)CCC1` returned a Ki on Mu-type opioid receptor of 180 nM.
In the case of `CN(C)[C@]1(c2ccccc2)CC[C@]2(CC1)CN(CCC(=O)Nc1ccncc1)C(=O)N2CC1(O)CCC1`, the Ki in experiment [1] came out at 8 nM; on Mu-type opioid receptor it was 40 nM.
In the case of `CN[C@]1(c2ccccc2)CC[C@]2(CC1)CN(CCC(=O)NCCO)C(=O)N2CC1(O)CCC1`, the Ki was determined as 215 nM in experiment [1] and 1200 nM on Mu-type opioid receptor.
`CN(C)[C@]1(c2ccccc2)CC[C@]2(CC1)CN(CCC(=O)Nc1cncnc1)C(=O)N2CC1(O)CCC1` showed a Ki on Mu-type opioid receptor of 320 nM.
Same read-out and setting: as for `CN(C)[C@]1(c2ccccc2)CC[C@]2(CC1)CN(CC(C)(C)C(N)=O)C(=O)N2CC1CCC1`, the figure is 113 nM.
As for `COCCN1C(=O)N(CC(C)(C)C(N)=O)C[C@]12CC[C@](c1ccccc1)(N(C)C)CC2`, the inhibitory constant (Ki) stood at 230 nM in experiment [1] and 815 nM at Mu-type opioid receptor.
For the compound `CN(C)[C@]1(c2ccccc2)CC[C@]2(CC1)CN(CC(C)(C)C(N)=O)C(=O)N2CC1(O)CCC1`, the results for the Ki (in experiment [1]; at Mu-type opioid receptor) were 19.5 nM and 545 nM, respectively.
As for `CN(C)[C@]1(c2ccccc2)CC[C@@]2(CC1)CN(CC(C)(C)C(N)=O)C(=O)N2CC1(O)CCC1`, the figures for the Ki (in experiment [1]; on Mu-type opioid receptor) were 815 nM and 4030 nM, respectively.
In the case of `CN(C)[C@]1(c2ccccc2)CC[C@]2(CC1)CN(CCC(=O)Nc1ncccn1)C(=O)N2CC1(O)CCC1`, the Ki stood at 14.5 nM in experiment [1] and 245 nM at Mu-type opioid receptor.
For `COCCCN1C(=O)N(CCC(=O)N2CCC[C@@H]2C(N)=O)C[C@]12CC[C@](c1ccccc1)(N(C)C)CC2`, the Ki in experiment [1] was 70.5 nM; on Mu-type opioid receptor it was 190 nM.
`CNC1(c2ccccc2)CCC2(CC1)CN(CC(C)(C)C(N)=O)C(=O)N2CC1CCC1` (stereo not given): affinity at Mu-type opioid receptor was put at a Ki of 555 nM.
The same measure, in the same setting: as for `CN(C)[C@]1(c2ccccc2)CC[C@]2(CC1)CN(CCC(=O)Nc1cnc(C#N)nc1)C(=O)N2CC1(O)CCC1`, the figure is 99.5 nM.
Regarding `CNC(=O)CCN1C[C@]2(CC[C@](c3ccccc3)(N(C)C)CC2)N(CC2(O)CCC2)C1=O`, the figures for the Ki (in experiment [1]; at Mu-type opioid receptor) were 12 nM and 250 nM, respectively.
The corresponding values for `CN[C@]1(c2ccccc2)CC[C@]2(CC1)CN(CCC(=O)NC1COC1)C(=O)N2CC1(O)CCC1` are 112 nM and 88.5 nM.
The corresponding values for `COCCCN1C(=O)N(CCC(=O)N2CCNC(=O)C2)C[C@]12CC[C@](c1ccccc1)(N(C)C)CC2` are 63.5 nM and 445 nM.
For `CN(C)[C@]1(c2cccc(F)c2)CC[C@]2(CC1)CN(CC(C)(C)C(N)=O)C(=O)N2CC1CC1`, in that order: 12 nM and 2480 nM.
`CN(C)[C@]1(c2ccccc2)CC[C@]2(CC1)CN(CCC(=O)Nc1ccc(S(C)(=O)=O)cn1)C(=O)N2CC1CCC1`: at Mu-type opioid receptor, the Ki was determined as 66 nM.
`CN(C)[C@]1(c2ccccc2)CC[C@]2(CC1)CN(CC(C)(C)C(=O)NCCO)C(=O)N2CC1(O)CCC1`: the figures for the Ki (in experiment [1]; on Mu-type opioid receptor) were 15 nM and 485 nM, respectively.
`COc1cnccc1NC(=O)CCN1C[C@]2(CC[C@](c3ccccc3)(N(C)C)CC2)N(CC2CCC2)C1=O`: the affinity on Mu-type opioid receptor corresponds to a Ki of 46.5 nM. That is a double-digit nanomolar value.
Turning to `CCN(C)[C@]1(c2ccccc2)CC[C@]2(CC1)CN(CC(C)(C)C(N)=O)C(=O)N2CC1(O)CCC1`, the figures for the Ki (in experiment [1]; at Mu-type opioid receptor) were 260 nM and 2610 nM, respectively.
As for `CN(C)[C@]1(c2ccccc2)CC[C@]2(CC1)CN(CCC(=O)NCC1(O)CCC1)C(=O)N2CC1CCC1`, the Ki in experiment [1] turned out to be 3.2 nM.
In turn, `COc1ccnc(NC(=O)CCN2C[C@]3(CC[C@](c4ccccc4)(N(C)C)CC3)N(CC3(O)CCC3)C2=O)n1` displayed a Ki on Mu-type opioid receptor of 130 nM.
Turning to `CN(C)[C@]1(c2ccccc2)CC[C@]2(CC1)CN(CCC(=O)NC1COC1)C(=O)N2CC1(O)CCC1`, the Ki was 11.5 nM in experiment [1] and 74 nM on Mu-type opioid receptor.
In the case of `CN(C)[C@]1(c2ccccc2)CC[C@]2(CC1)CN(CC(C)(C)C(N)=O)C(=O)N2`, the Ki in experiment [1] was determined as 245 nM; at Mu-type opioid receptor it was 7340 nM.
Consider `CN(C)[C@]1(c2ccccc2)CC[C@]2(CC1)CN(CCC(=O)NCc1ncco1)C(=O)N2CC1CCC1`, for which the Ki on Mu-type opioid receptor stood at 8.2 nM. In other words, the single-digit nanomolar range.
On to `CN(C)C(=O)CCN1C[C@]2(CC[C@](c3cccc(F)c3)(N(C)C)CC2)N(CC2CC2)C1=O`, for which the Ki in experiment [1] was found to be 22 nM; at Mu-type opioid receptor it was 610 nM.
In experiment [1], `COCCCN1C(=O)N(CCC(=O)NC(C)(C)C(N)=O)C[C@]12CC[C@](c1ccccc1)(N(C)C)CC2` had a Ki of 72.5 nM.
The same measure, in the same setting: for `CNC(=O)CCN1C[C@]2(CC[C@](c3ccccc3)(N(C)CC(C)C)CC2)N(CC2CCC2)C1=O` the value was 1200 nM.
As for `CN(C)[C@]1(c2ccccc2)CC[C@]2(CC1)CN(CC(C)(C)C(N)=O)C(=O)N2CC1COC1`, the Ki is 150 nM in experiment [1] and 4670 nM on Mu-type opioid receptor.
`COc1ccc(NC(=O)CCN2C[C@]3(CC[C@](c4ccccc4)(N(C)C)CC3)N(CC3CCC3)C2=O)nn1` returned an inhibitory constant (Ki) at Mu-type opioid receptor of 24.5 nM.
Consider `COCCCN1C(=O)N(CCC(=O)NCCO)C[C@]12CC[C@](c1ccccc1)(N(C)C)CC2`, for which the Ki in experiment [1] turned out to be 116 nM; at Mu-type opioid receptor, 395 nM.
`CN(C)[C@]1(c2ccccc2)CC[C@]2(CC1)CN(CCC(=O)Nc1nccc(O)n1)C(=O)N2CC1(O)CCC1`: at Mu-type opioid receptor, the Ki came to 160 nM.
On to `CN(C)[C@]1(c2ccccc2)CC[C@]2(CC1)CN(CC(C)(C)C(=O)NCC(N)=O)C(=O)N2CC1CCC1`, for which, on Mu-type opioid receptor, the Ki was determined as 64 nM.
As to `COc1cc(NC(=O)CCN2C[C@]3(CC[C@](c4ccccc4)(N(C)C)CC3)N(CC3CCC3)C2=O)ccn1`, at Mu-type opioid receptor, the Ki came to 44.5 nM. This Ki and that of the compound before are within 1.5-fold of each other.
For the compound `CN(C)[C@]1(c2ccccc2)CC[C@]2(CC1)CN(CC(C)(C)C(N)=O)C(=O)N2CC1CC1`, the values for the Ki (in experiment [1]; at Mu-type opioid receptor) were 23 nM and 480 nM, respectively.
As to `CN(C)[C@]1(c2ccccc2)CC[C@]2(CC1)CN(CCC(=O)N1C[C@@H](O)[C@@H](O)C1)C(=O)N2CC1CCC1`, the inhibition constant (Ki) in experiment [1] was 11.4 nM; at Mu-type opioid receptor, 31 nM.
For `CNC(=O)CCN1C[C@]2(CC[C@@](NC)(c3ccccc3)CC2)N(CC2(O)CCC2)C1=O`, in that order: 205 nM and 1630 nM.
For `CN(C)[C@]1(c2ccccc2)CC[C@]2(CC1)CN(CCC(=O)N1CCn3ncnc3C1)C(=O)N2CC1CCC1`, the Ki at Mu-type opioid receptor came to 49 nM.
`CN(C)[C@]1(c2ccccc2)CC[C@]2(CC1)CN(CCC(=O)N1C[C@H](O)[C@@H](O)C1)C(=O)N2CC1CCC1` gave a Ki in experiment [1] of 10.6 nM.
As to `CCN(C)[C@]1(c2ccccc2)CC[C@]2(CC1)CN(CC(C)(C)C(N)=O)C(=O)N2CC1CCC1`, the Ki in experiment [1] was 19 nM; at Mu-type opioid receptor it was 910 nM.
The corresponding values for `COCCCN1C(=O)N(CCC(=O)NCC(N)=O)C[C@]12CC[C@](c1ccccc1)(N(C)C)CC2` are 101 nM and 210 nM.
`CN(C)[C@]1(c2ccccc2)CC[C@]2(CC1)CN(CCC(N)=O)C(=O)N2CC1(O)CCC1`: affinity at Mu-type opioid receptor was put at a Ki of 118 nM.
As for `COCCCN1C(=O)N(CC(C)(C)C(N)=O)C[C@]12CC[C@](c1ccccc1)(N(C)C)CC2`, the Ki amounted to 130 nM in experiment [1] and 1190 nM on Mu-type opioid receptor.
On to `COCCN1C(=O)N(CCC(=O)Nc2cncnc2)C[C@]12CC[C@](c1ccccc1)(N(C)C)CC2`, for which the inhibition constant (Ki) in experiment [1] was found to be 48.5 nM; at Mu-type opioid receptor it was 1030 nM.
In turn, `COc1ccc(NC(=O)CCN2C[C@]3(CC[C@](c4ccccc4)(N(C)C)CC3)N(CC3CCC3)C2=O)nc1` showed a Ki at Mu-type opioid receptor of 25 nM.
As for `CN(C)[C@]1(c2ccccc2)CC[C@]2(CC1)CN(CC(C)(C)C(=O)N1CCS(=O)(=O)CC1)C(=O)N2CC1(O)CCC1`, the Ki in experiment [1] amounted to 12 nM; on Mu-type opioid receptor, 510 nM.
`CN(C)[C@]1(c2ccccc2)CC[C@]2(CC1)CN(CCC(=O)N1CCCC(O)C1)C(=O)N2CC1CCC1` (stereo not given in full): the Ki on Mu-type opioid receptor is 7.6 nM. That is a single-digit nanomolar value.
On the same count and under the same terms, for `COc1cncc(NC(=O)CCN2C[C@]3(CC[C@](c4ccccc4)(N(C)C)CC3)N(CC3CCC3)C2=O)n1` the value was 19 nM.

For orientation: Ki means the equilibrium dissociation constant of an inhibitor or competing ligand from its target. Low values mean tighter binding, high ones weaker binding.
